From ChEMBL document CHEMBL1155433, “Benzimidazole Thumb Pocket I finger-loop inhibitors of HCV NS5B polymerase: improved drug-like properties through C-2 SAR in three sub-series” (Bioorg Med Chem Lett, 2010)

Organism: Homo sapiens
Experiment: Protein binding in human plasma by equilibrium dialysis method
Conditions: read-out: PPB (converted)

`O=C(O)/C=C/c1ccc(NC(=O)C2(NC(=O)c3ccc4c(c3)nc(-c3ccoc3)n4C3CCCCC3)CCCC2)cc1` was tested. Which fraction unbound did it give?
Its fraction unbound is 0.038.
